Reference: patent US20110171160A1, “POLYMER CONJUGATES OF KISS1 PEPTIDES” (Nektar Therapeutics, priority 2008, published 2011)

Amino acid sequences for entries named in this document (tags omitted).
UniProt Q969F8, whole entry: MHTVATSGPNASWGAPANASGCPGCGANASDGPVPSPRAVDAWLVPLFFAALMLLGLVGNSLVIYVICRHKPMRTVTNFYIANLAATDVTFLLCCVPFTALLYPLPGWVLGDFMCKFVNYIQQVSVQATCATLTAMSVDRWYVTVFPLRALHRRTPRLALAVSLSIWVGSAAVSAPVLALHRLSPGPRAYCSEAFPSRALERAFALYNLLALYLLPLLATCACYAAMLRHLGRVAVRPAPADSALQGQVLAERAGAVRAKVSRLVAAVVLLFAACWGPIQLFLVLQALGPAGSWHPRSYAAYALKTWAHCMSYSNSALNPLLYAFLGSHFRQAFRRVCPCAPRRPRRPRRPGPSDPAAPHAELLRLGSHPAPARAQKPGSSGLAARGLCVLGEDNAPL

Target: T1, human GPR54 (Homo sapiens, UniProt Q969F8)
T1 construct: host or cells: Chem-1 host cells, with the promiscuous G protein Galpha15 (Gal 5 [sic])
Assay: FLIPR calcium flux agonist assay on GPR54-expressing Chem-1 cell line
Format: cell-based
Details: for EC50 (nM) of agonist activation at GPR54: time of release n/a (no release incubation); for EC50: HEPES buffer pH 7, 37° C., read-out: EC50 (nM) of agonist activation at GPR54
Method: A FLIPR assay was conducted to screen Kisspeptin and PEG-Kisspeptin peptides for dose-dependent agonist activities on the GP[…]-Protein coupled receptor. […] All compounds were diluted in their storage solvents to produce 250× (of the top dose listed below) master stock solutions. Compounds were then transferred from their master stock solutions into a daughter plate that was used in the assay. Each 250× solution was diluted into assay buffer (1×HBSS with 20 mM HEPES and 2.5 mM Probenecid) to obtain the final top test concentration. Calcium flux agonist assay: Chemicon's cloned human GPR54-expressing cell line is made in the Chem-1 host, which supports high levels of recombinant GPR54 expression on the cell surface and contains high levels of the promiscuous G protein Gal 5 to couple the receptor to the calcium signaling pathway. […] Reference agonist was handled as mentioned above, serving as assay control. Assay was read for 180 seconds using the FLIPR^TETRA. All plates were subjected to appropriate baseline corrections. Once baseline corrections were processed, maximum fluorescence values were exported and data manipulated to calculate percentage activation and Z'. Dose response curves were generated using GraphPad Prism. The curves were fit by utilizing sigmoidal dose response (variable slope) fitting with the bottom parameter fixed at 0 (FIGS.

In the case of “Ald10K-KP10: Kisspeptin-10 mono-PEGylated with mPEG-ButyrALD10K by reductive amination (stable conjugate)”, the “EC50 (nM) of agonist activation at GPR54” value is reported as “No activity”.

In the case of “Ald30K-KP10: Kisspeptin-10 mono-PEGylated with mPEG-butyrALD30K by reductive amination (stable conjugate)”, the “EC50 (nM) of agonist activation at GPR54” value is reported as “No activity”.

“CAC-40K-KP10: Kisspeptin-10 mono-PEGylated with mPEG2-CAC-FMOC-NHS-40K (releasable conjugate)” was tested, and the “Fold change compared to metastin” value (time of release 0 h) was 155 fold, the EC50 (time of release 0 h, listed as CAC-40K Kisspeptin 10) was 1600 nM and the EC50 (time of release 0 h) was 1700 nM. For the same substance, the “Fold change compared to metastin” value (time of release 24 h) was 9 fold, the EC50 (time of release 24 h) was 120 nM and the “Fold change compared to metastin” value (time of release 48 h) was 6 fold. The EC50 (time of release 48 h) was 74 nM, the “Fold change compared to metastin” value (time of release 96 h) was 4 fold and the EC50 (time of release 96 h) was 47 nM.

“SBC-30K-KP10: Kisspeptin-10 mono-PEGylated with N-m-PEG-Benzamide-p-Succinimidyl Carbonate (SBC)-30K (releasable conjugate)” was tested, and the “Fold change compared to metastin” value (time of release 0 h) was 23 fold, the EC50 (time of release 0 h) was 280 nM and the “Fold change compared to metastin” value (time of release 0 h, listed as SBC-30K Kisspeptin 10) was “about 23 fold”. The “Fold change compared to metastin” value (time of release 2 h) was roughly 17 fold and the EC50 (time of release 2 h) was 200 nM.

Read-outs that look alike come from different tables or passages of the source.
